Our source for the Activity and IC50 values is ChEMBL document CHEMBL3425429.

Amino acid sequences for entries named in this document (tags omitted). A change or cut given only in a name is not applied to a line headed by its entry.
UniProt P12931: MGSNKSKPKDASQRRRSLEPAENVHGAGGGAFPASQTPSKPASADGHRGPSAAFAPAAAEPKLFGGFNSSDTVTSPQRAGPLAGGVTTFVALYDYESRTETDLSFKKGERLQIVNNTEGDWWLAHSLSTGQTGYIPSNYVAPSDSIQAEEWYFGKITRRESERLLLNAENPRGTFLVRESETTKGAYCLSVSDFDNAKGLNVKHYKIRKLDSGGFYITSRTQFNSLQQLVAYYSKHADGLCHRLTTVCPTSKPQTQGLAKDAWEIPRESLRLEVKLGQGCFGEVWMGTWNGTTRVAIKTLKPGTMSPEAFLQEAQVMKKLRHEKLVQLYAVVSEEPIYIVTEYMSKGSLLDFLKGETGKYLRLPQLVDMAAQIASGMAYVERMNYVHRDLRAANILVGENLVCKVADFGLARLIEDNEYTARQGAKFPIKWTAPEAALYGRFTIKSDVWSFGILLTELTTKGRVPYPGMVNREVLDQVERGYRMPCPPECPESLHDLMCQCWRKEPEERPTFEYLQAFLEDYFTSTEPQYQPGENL

Assay [1] concerns MDA-MB-231. The assay can be described thus: Induction of apoptosis in human MDA-MB-231 cells assessed as early apoptotic cells at 0.1 uM after 24 hrs by annexin V-FITC/propidium iodide staining-based flow cytometric analysis (reference value: 1.58%). Type of assay: functional. (In general: In flow cytometry, cells or beads pass a laser one at a time.)
Assay [2] deals with Proto-oncogene tyrosine-protein kinase Src (Homo sapiens, UniProt P12931).

In general, IC50 refers to the concentration that inhibits the measured activity by half. Lower therefore signals greater potency.

Consider `CCn1nc(C#Cc2cc(C(=O)Nc3ccc(CN4CCN(C)CC4)c(C(F)(F)F)c3)ccc2C)c2c(N)ncnc21`, for which, in assay [1], the Activity turned out to be 8.67%.

In turn, `C=CC(=O)N1CCC(n2nc(C#Cc3cc(C(=O)Nc4ccc(CN5CCN(C)CC5)c(C(F)(F)F)c4)ccc3C)c3c(N)ncnc32)CC1` showed an IC50 in assay [2] of 15 nM.
